Source: patent US9656962B2, “Ring-contracted morphinans and the use thereof” (Purdue Pharma L.P., priority 2013, dated 2017)

Experiments:
μ-opioid receptor [1] = target: T1, μ-opioid receptor (Homo sapiens (Human), UniProt P35372); assay: μ-opioid receptor radioligand binding assay ([3H]-diprenorphine); conditions: binding affinity
Method: μ-Opioid Receptor Binding Assay Procedures: Radioligand dose-displacement binding assays for μ-opioid receptors used 0.3 nM [^3H]-diprenorphine (Perkin Elmer, Shelton, Conn.), with […] membrane protein/well in a final volume of 500 μl binding buffer (10 mM MgCl2, 1 mM EDTA, 5% DMSO, 50 mM HEPES, pH 7.4). Reactions were carried out in the absence or presence of increasing concentrations of unlabeled naloxone. All reactions were conducted in 96-deep well polypropylene plates for 2 hours at room temperature. Binding reactions were terminated by rapid filtration onto 96-well Unifilter GF/C filter plates (Perkin Elmer, Shelton, Conn.), presoaked in 0.5% polyethylenimine using a 96-well tissue harvester (Perkin Elmer, Shelton, Conn.) followed by performing three filtration washes with 500 μl of ice-cold binding buffer. Filter plates were subsequently dried at 50° C. for 2-3 hours. BetaScint scintillation cocktail (Perkin Elmer, Shelton, Conn.) was added (50 μl/well), and plates were counted using a Packard Top-Count for 1 min/well. The data were analyzed using the one-site competition curve fitting functions in GraphPad PRISM™ v. 3.0 or higher (San Diego, Calif.), or an in-house function for one-site competition curve-fitting.

μ-opioid receptor [2] = target: T1, μ-opioid receptor; assay: μ-opioid receptor [35S]GTPγS functional assay, U-2 OS cells (Table 5); assay type: biochemical; conditions: μ GTP
Method: (§1) μ-Opioid Receptor Functional Assay Procedures: [^35S]GTPγS functional assays were conducted using freshly thawed μ-receptor membranes prepared in-house from a cell line expressing recombinant μ opioid receptor in a HEK-293, CHO or U-2 OS cell background, or purchased from a commercial source (Perkin Elmer, Shelton, Conn.; or DiscovRx, Fremont, Calif.). Assay reactions were prepared by sequentially adding the following reagents to binding buffer (100 mM NaCl, 10 mM MgCl2, 20 mM HEPES, pH 7.4) on ice (final concentrations indicated): membrane protein (0.026 mg/mL), saponin ([…]), GDP ([…]) and [^35S]GTPγS (0.20 nM; Perkin Elmer, Shelton, Conn.). The prepared membrane solution (190 μl/well) was transferred to 96-shallow well polypropylene plates containing 10 μl of 20× concentrated stock solutions of the agonist [D-Ala^2, N-methyl-Phe^4 Gly-ol^5]-enkephalin (DAMGO) prepared in dimethyl sulfoxide (DMSO). […] BetaScint scintillation cocktail (Perkin Elmer, Shelton, Conn.) was added (50 μl/well) and plates were counted using a Packard Top-Count for 1 min/well. Data were analyzed using the sigmoidal dose-response curve fitting functions in GraphPad PRISM v. […]
The following TABLE 5 provides results on the activity response of certain Compounds of the Invention at the μ- and κ-opioid receptors determined as described above using U-2 OS cells.

μ-opioid receptor [3] = target: T1, μ-opioid receptor; assay: μ-opioid receptor [35S]GTPγS functional assay, HEK-293 or CHO cells (Table 4); assay type: biochemical; conditions: μ GTP, bound given in μM
Method: as §1
In TABLE 4, activity response of certain Compounds of the Invention to the μ- and κ-opioid receptors was determined as described above for functional assays using HEK-293 or CHO cells.

δ-opioid receptor = δ-opioid receptor (Homo sapiens (Human), UniProt P41143); assay: δ-opioid receptor radioligand binding assay ([3H]-Naltrindole); conditions: binding affinity
Method: δ-Opioid Receptor Binding Assay Procedures: δ-Opioid Receptor Binding Assay Procedures were conducted as follows. Radioligand dose-displacement assays used 0.3 nM [^3H]-Naltrindole (Perkin Elmer, Shelton, Conn.; 33.0 Ci/mmole) with 5 μg membrane protein (Perkin Elmer, Shelton, Conn.) in a final volume of 500 μl binding buffer (5 mM MgCl2, 5% DMSO, 50 mM Trizma base, pH 7.4). Non-specific binding was determined in the presence of 25 μM unlabeled naloxone. All reactions were performed in 96-deep well polypropylene plates for 1 hour at a temperature of about 25° C. Binding reactions were terminated by rapid filtration onto 96-well Unifilter GF/C filter plates (Perkin Elmer, Shelton, Conn.) presoaked in 0.5% polyethylenimine (Sigma). Harvesting was performed using a 96-well tissue harvester (Perkin Elmer, Shelton, Conn.) followed by five filtration washes with 500 μl ice-cold binding buffer. Filter plates were subsequently dried at 50° C. for 1-2 hours. Fifty μl/well scintillation cocktail (Perkin Elmer, Shelton, Conn.) was added and plates are counted in a Packard Top-Count for 1 min/well.

SMILES: N=C(N)NCCNC(=O)[C@@H]1C[C@]23CCN(CC4CC4)[C@H](Cc4ccc(O)cc42)[C@]3(O)C1 [Compound 6, (2R,3aS,4R,9bS)-12-(cyclopropylmethyl)-N-(2-guanidinoethyl)-3a,8-dihydroxy-1,2,3,3a,4,5-hexahydro-4,9b-(epimino-ethano)cyclopenta[a]naphthalene-2-carboxamide]
- Ki (μ-opioid receptor [1]): 19.7 ± 4.68 nM
- EC50 (μ-opioid receptor [2]): 16 ± 0.91 nM
- EC50 (μ-opioid receptor [3]): > 20 µM
- Ki (δ-opioid receptor): 7710 ± 1280 nM
